PubChem BioAssay AID688 (PCMD, 2007)
The entries are a selection whose mix differs from that of the whole data set. Active and inactive are the calls of the source.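 The calls were made as follows: active = mutant luminescence inhibited past about 50% while wild type luminescence and mutant growth stay under set limits (limit read from the data); inconclusive = mutant versus wild type luminescence inhibition gap past a set limit; inactive = the rest.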

experiment: GCN4-lacZ reporter reduction in eIF2B-epsilon mutant yeast, primary screen, S. cerevisiae, eIF2B-epsilon R284H, Beta-Glo luminescence (AID 688); conditions: stronger effect = higher value, screened at 25 µM (by protocol)

Compound	inhibition
O=C(OC1CN2CCC1CC2)c1cccc(Cl)c1 (configuration not stated)	inactive: 19.8%
O=P1(Nc2nc3ccc(Cl)cc3s2)COc2ccccc2O1 (configuration not stated)	inactive: 13.8%
Cc1c(NP(C)(=O)Oc2ccc(C(C)C)cc2)c(=O)n(-c2ccccc2)n1C (configuration not stated)	inactive: -46.3%
Cc1c2non([O-])c-2c(C)[n+](=O)[n+]1[O-]	inactive: 8.97%
Oc1ccccc1CNc1ccccn1	inactive: 14.5%
COc1ccc(OP(C)(=O)Nc2ccccn2)cc1 (configuration not stated)	inactive: 22.9%
CN1CCCC(OC(=O)C(c2ccccc2)c2ccccc2)C1 (configuration not stated)	inactive: -17.4%
CC1CCN(C(=O)Oc2c(Cl)cc(Cl)c3cccnc23)CC1	inactive: 31.3%
O=[N+]([O-])c1cccc2n[nH]nc12	inactive: 18.5%
CCOP(C)(=S)SCC(=O)NC(C)C(=O)O (configuration not stated)	inactive: 7.15%
O=C(OC1CN2CCC1CC2)C12CC3CC(CC(C3)C1)C2 (configuration not stated)	inactive: 13%
Cc1ccc(NP(C)(=O)Oc2ccccc2)c(C)c1 (configuration not stated)	inactive: 22.8%
Cc1cc(C)cc(OP(C)(=O)Nc2ccccn2)c1 (configuration not stated)	inactive: 11.5%
CC1(CBr)Cn2c(nc3ccccc3c2=O)S1 (configuration not stated)	inactive: 33.4%
O=P1(Nc2ccc(Br)cn2)COc2ccccc2OC1	inactive: 25.2%
O=P1(Nc2ncccn2)COc2ccccc2OC1	inactive: 23.4%
COc1ccccc1OP(C)(=O)Nc1c(C)cccc1C (configuration not stated)	inactive: 11.9%
